Sequences of proteins named here, by UniProt entry; tags and fusion partners are left off. A change or cut given only in a name is not applied to a line headed by its entry.
UniProt P0AF12: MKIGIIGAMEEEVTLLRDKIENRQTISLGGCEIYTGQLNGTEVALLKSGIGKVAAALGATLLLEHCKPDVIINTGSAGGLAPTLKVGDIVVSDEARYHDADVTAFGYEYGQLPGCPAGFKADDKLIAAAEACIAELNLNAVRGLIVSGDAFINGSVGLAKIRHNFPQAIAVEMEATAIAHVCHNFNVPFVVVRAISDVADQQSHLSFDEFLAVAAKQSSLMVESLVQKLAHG

In BindingDB's records for doi:10.1021/jm701265n (Industrial Research, 2008):

Target: 5'-methylthioadenosine/S-adenosylhomocysteine nucleosidase (Escherichia coli (strain K12), UniProt P0AF12)
Experiment: MTAP/MTAN Inhibition Assay
Details: pH 7; 22 °C

Ki: 0.048 nM
Structure (SMILES): CSC[C@H]1CN(Cc2c[nH]c3c(N)ncnc23)C[C@@H]1O [DADMe-ImmA-Me]
